Like-named read-outs stand apart in the source and are kept apart here.
Assays:
Assay in all cases: cell-surface binding assay with streptavidin-alkaline phosphatase staining
[1] = target: neurexin 1β expressed on SH-SY5Y cells (UniProt P58400)
[2] = target: endogenous LAG3 on mouse cortical neurons (mouse (endogenous in cortical neurons)) (UniProt Q61790)
[3] = target: LAG3 overexpressed on SH-SY5Y cells (not stated (human or mouse cDNA cloned)) (UniProt Q61790)
[4] = target: LAG3 overexpressed on SH-SY5Y cells (not stated (human or mouse cDNA cloned)) (UniProt Q61790); remark: listed apart in the source

Substance: mouse α-synuclein-biotin pre-formed fibrils (from UniProt O55042 1-140) (natural protein)
- selectivity, Kd (monomer) divided by Kd (PFF) [1]: 11
- Kd [2]: 103 nM
- Kd [3]: 77 nM
- selectivity, Kd (monomer) divided by Kd (PFF) [3]: 38
- Kd [4]: 71 nM

— article PMC5510615
